Test results: published antibiotic growth screens (doi:10.1038/s41589-023-01349-8)
The other results are listed elsewhere or left out.

Each molecule was assayed on A. baumannii ATCC 17978 (assay: relative growth (fraction of control); higher = less inhibition). Settings: 50 µM.

Row | SMILES | relative growth
1 | C=CCC[C@@H](Cc1ccc(F)cc1)C(=O)OC[C@@H](NC(=O)[C@@H](CC=C)CC(=O)N(CCO)Cc1ccccc1)C(C)(C)C | 0.969
2 | Cc1ccc(S(=O)(=O)N[C@@H](Cc2ccccc2)C(=O)NCCCn2cc(CN3C(=O)COC[C@H]3c3ccccc3)nn2)cc1 | 0.862
3 | CO[C@@H](CN(C)C(=O)Nc1ccc(C(F)(F)F)cc1)[C@H](C)CN(Cc1ccccc1Cl)[C@@H](C)CO | 0.688
4 | COc1cccc(NC(=O)N[C@@H]2C=C[C@@H](CC(=O)N3CCN(C)CC3)O[C@H]2CO)c1 | 0.974
5 | CCC(CC)c1nc(Nc2ccccc2)c2ccccc2n1 | 0.807
6 | COc1ccc([C@H]([C@@H](O)Cc2ccccc2)N(C[C@H](/C=C/c2ccccc2)CC(=O)N(C)C)[C@@H](Cc2ccccc2)C(OC)OC)cc1 | 1.17
7 | C[C@H](CO)N1C[C@H](C)[C@@H](CN(C)S(=O)(=O)c2ccccc2)Oc2cc(Br)ccc2S1(=O)=O | 1.01
8 | COc1ccc([Si](C)(C)[C@H]2[C@H](CC(=O)N3CCC[C@H]3CO)O[C@@]3(C(=O)N(Cc4cccc(N5CCCCC5=O)c4)c4ccccc43)[C@@H]2C)cc1 | 1.11
9 | Nc1ncn([C@@H]2O[C@H](CO)[C@@H](O)[C@H]2O)c(=O)n1 | 0.977
10 | C[C@H]1CN([C@@H](C)CO)C(=O)Cc2cc(NC(=O)Nc3cccc(C(F)(F)F)c3)ccc2O[C@H]1CN(C)S(=O)(=O)c1ccc(Oc2ccccc2)cc1 | 1
11 | C[C@@H]1O[C@@H](O[C@@H]2[C@@H](O)[C@H](O)[C@@H](CO)O[C@H]2c2c(O)cc3oc(-c4ccc(O)cc4)cc(=O)c3c2O)[C@H](O)[C@H](O)[C@H]1O | 1.17
12 | COc1ccccc1S(=O)(=O)N[C@H]1C=C[C@H](CC(=O)N2CCN(C)CC2)O[C@H]1CO | 0.921
13 | Cc1ccnc(NC(=O)Cn2cnc3c2c(=O)n(C)c(=O)n3C)c1 | 1.02
14 | O=C(Nc1ccn([C@H]2O[C@H](CO)[C@@H](O)[C@@H]2O)c(=O)n1)c1ccccc1 | 1.04
15 | CC(C)NC(=O)[C@@H](C)n1ncn2cccc2c1=O | 1.04
16 | CC(C)/C(=N/O)c1ccccc1 | 1
17 | Cc1ccc(S(=O)(=O)O)cc1.NC1CCN(c2nc3c(cc2F)c(=O)c(C(=O)O)cn3-c2ccc(F)cc2F)C1.O (stereo not drawn) | 0.478
18 | COc1ccccc1NC(=O)N(C)C[C@@H]1Oc2cc(Br)ccc2S(=O)(=O)N([C@@H](C)CO)C[C@H]1C | 0.799
19 | CC(=O)c1ccc(S(=O)(=O)NC(=O)NC2CCCCC2)cc1 | 1.01
20 | CCOC(=O)CC1=NC(=O)CS1 | 1.04
21 | O=C(N[C@@H]1CC[C@H](CCNS(=O)(=O)c2ccccc2)O[C@H]1CO)c1cnccn1 | 1.04
22 | CO/N=C1\CN(c2nc3c(cc2F)c(=O)c(C(=O)O)cn3C2CC2)C[C@@H]1CN | 0.121
23 | O=C(NCc1ccccc1)OCCO | 0.9
24 | C[C@H]1CN([C@@H](C)CO)S(=O)(=O)c2ccc(C#Cc3cccc(F)c3)cc2O[C@@H]1CN(C)S(=O)(=O)c1ccccc1F | 1.23
25 | O=C1CCCNc2ccc(Cl)cc21 | 0.912
26 | Cc1cccc(NC(=O)Nc2ccc3c(c2)C(=O)N(C)[C@@H]2CC[C@@H](CC(=O)NCc4ccccc4Cl)O[C@H]2CO3)c1 | 1.07

Row | SMILES | relative growth
27 | C[C@@H](NC=C1C(=O)OC(C)(C)OC1=O)C(=O)O | 0.952
28 | CCCNC(=O)N[C@@H]1CC[C@H](CC(=O)N2CCN(C)CC2)O[C@H]1CO | 1.06
29 | O=C1N[C@H](Cc2c[nH]c3ccccc23)COC(=O)[C@@H](Cc2ccc(F)cc2)CCC=CC[C@@H]1CC(=O)N(CCO)Cc1ccccc1 | 1.03
30 | CCC(=O)N(C)C[C@@H]1Oc2ncc(C#C[C@H](C)O)cc2C(=O)N([C@H](C)CO)C[C@H]1C | 1
31 | Cc1nc2ccccc2n1Cc1ccc(Cl)cc1 | 0.145
32 | CCN1CC(CCN2CCOCC2)C(c2ccccc2)(c2ccccc2)C1=O.Cl (stereo not drawn) | 1.27
33 | Cc1cc(=O)oc2cc(O)ccc12 | 0.824
34 | COc1ccc(S(=O)(=O)N(C)C[C@@H]2Oc3cc(C4=CCCC4)ccc3S(=O)(=O)N([C@@H](C)CO)C[C@H]2C)cc1 | 1.11
35 | O=C(Nc1cccc(C(F)(F)F)c1)c1ccc2ccccc2c1 | 0.983
36 | NCC[C@H]1CC[C@@H](NC(=O)C2CCCCC2)[C@@H](CO)O1 | 1.23
37 | COc1ccccc1S(=O)(=O)N1C[C@H](O)COC[C@H]2O[C@@H](CC(=O)O)CC[C@@H]21 | 1.1
38 | COc1ccc([C@H]([C@@H](O)Cc2ccccc2)N(CC#C[C@@H](O[Si](c2ccccc2)(c2ccccc2)C(C)(C)C)c2ccccc2)[C@@H](Cc2ccccc2)C(OC)OC)cc1 | 1.4
39 | COCC(=O)N1c2ccccc2C[C@H]1C(N)=O | 1.13
40 | CC[C@@H]1CN(C(=O)OC)N1 | 1.02
41 | CN(C)CCCCCCNC(=O)[C@H]1C[C@H]2C(=O)N[C@@H](CCCC[N+](C)(C)C)C(=O)N2[C@H]1c1cccc(OCCO)c1 | 0.96
42 | Cc1cccc(CN2CCN(C(c3ccccc3)c3ccc(Cl)cc3)CC2)c1.Cl.Cl (stereo not drawn) | 1.2
43 | C[C@]12C=CC(=O)C=C1CCC1C2[C@@H](O)C[C@@]2(C)C1CC[C@]2(O)C(=O)COC(=O)CCC(=O)O (stereo partly drawn) | 0.551
44 | O=S(=O)(NCC[C@H]1CC[C@@H](NS(=O)(=O)c2ccccc2Cl)[C@H](CO)O1)c1ccc(F)cc1 | 1.2
45 | O=C(C[C@H]1CC[C@H](NC(=O)C2CC2)[C@H](CO)O1)NCCCN1CCOCC1 | 0.818
46 | C[C@@H]1CN([C@H](C)CO)S(=O)(=O)c2ccc(C#Cc3ccccc3F)cc2O[C@@H]1CN(C)CC1CC1 | 0.819
47 | Cl.NCCCC(N)C(=O)O (stereo not drawn) | 0.832
48 | CCc1[nH]c(=S)[nH]c(=O)c1C#N | 0.897
49 | O=C(C[C@H]1CC[C@H]2[C@@H](COC[C@H](O)CN2S(=O)(=O)c2ccc(Cl)cc2)O1)NCCN1CCCCC1 | 0.98
50 | COc1cc(C(=O)O)cc(OC)c1O | 0.961
51 | C[C@H]1CCCN(S(=O)(=O)CCN)C1 | 1.05
52 | C=CC[C@@H](CC(=O)NCCO)C(=O)N[C@@H](COC(=O)[C@@H](CC=C)CC(=O)OC(C)(C)C)Cc1c[nH]c2ccccc12 | 1.01

Row | SMILES | relative growth
53 | C[C@H]1CN([C@@H](C)CO)C(=O)CCCn2nncc2CO[C@H]1CN(C)S(=O)(=O)c1ccc(Cl)cc1 | 0.978
54 | COc1cccc(S(=O)(=O)Nc2ccc3c(c2)OC[C@H](C)N(C(=O)Cc2cccnc2)C[C@@H](C)[C@@H](OC)CN(C)C3=O)c1 | 1.01
55 | O=C(CN1CCOCC1)N[C@H]1CC[C@H](CCn2cc(C3CC3)nn2)O[C@H]1CO | 1.19
56 | O=C(C[C@@H]1CC[C@H]2[C@@H](COC[C@H](O)CN2C(=O)c2ccccc2F)O1)N1CCN(c2ccccc2)CC1 | 1.02
57 | O=C(C[C@@H]1CC[C@@H](NC(=O)c2cnccn2)[C@@H](CO)O1)NCc1ccccc1F | 0.973
58 | COc1cccc(S(=O)(=O)N(C)C[C@H]2Oc3cc(C4=CCCC4)ccc3S(=O)(=O)N([C@H](C)CO)C[C@@H]2C)c1 | 1
59 | CN(C)CC(=O)N[C@H]1CC[C@@H](CCNC(=O)C2CC2)O[C@@H]1CO | 1.18
60 | CCCNC(=O)N1C[C@@H](O)COC[C@H]2O[C@H](CC(=O)N3CCN(C)CC3)CC[C@@H]21 | 0.966
61 | O=C(C[C@H]1CC=CC[C@H](NC(=O)OCC2c3ccccc3-c3ccccc32)C(=O)OCCNC1=O)NCCO | 1
62 | NS(=O)(=O)c1ncn(Cc2ccccc2)n1 | 0.805
63 | COc1ccccc1-c1ccc2c(c1)O[C@@H](CN(C)C(=O)c1cccnc1)[C@H](C)CN([C@@H](C)CO)S2(=O)=O | 0.967
64 | CCC(=O)Nc1ccc2c(c1)OC[C@H](C)N(C(=O)CN1CCOCC1)C[C@H](C)[C@@H](OC)CN(C)C2=O | 1.13
65 | COc1cc2c(cc1OC)CN(C(=O)[C@H]1[C@@H]3C(=O)O[C@@H](c4ccccc4)[C@@H](c4ccccc4)N3[C@@H](c3ccc(OCCO)cc3)[C@]13C(=O)Nc1ccc(C#CC4(O)CCCCCC4)cc13)CC2 | 1.34
66 | CO[C@@H]1[C@@H](OC(=O)c2ccc(C)[nH]2)[C@@H](O)[C@@H](Oc2ccc3c(c2C)OC(=O)[C@H](NC(=O)c2[nH]cc(CC(=O)Nc4cc5ccc(O[C@@H]6OC(C)(C)[C@H](OC)[C@@H](OC(=O)c7ccc(C)[nH]7)[C@H]6O)c(C)c5oc4=O)c2C)C3)CC1(C)C | 0.235
67 | O=c1cc(-c2ccccc2)[nH]c(=O)[nH]1 | 0.923
68 | CC(C)CSc1ncnc2scc(-c3ccccc3)c12 | 0.92
69 | Cc1ccc(S(=O)(=O)N2C[C@H](O)COC[C@H]3O[C@H](CC(=O)NCc4ccc5c(c4)OCO5)CC[C@@H]32)cc1 | 0.973
70 | O=C(CCCCCC(=O)N/N=C/[C@H](O)[C@@H](O)[C@H](O)CO)NO | 0.979
71 | CNCc1ccccc1.Cl | 1.09
72 | O=C(C[C@H]1CC[C@H]2[C@@H](COC[C@H](O)CN2S(=O)(=O)c2ccc(F)cc2)O1)N[C@H]1CCN(Cc2ccccc2)C1 | 1.09
73 | COCC#Cc1ccc2c(c1)O[C@H](CN(C)S(=O)(=O)c1cccc(OC)c1)[C@H](C)CN([C@H](C)CO)S2(=O)=O | 0.89
74 | CCCC1CCC(c2ccc(OC(=O)c3cccnc3)cc2)CC1 (stereo not drawn) | 1.23
75 | CO[C@H]1CN(C)C(=O)c2cc(NC(=O)Nc3ccccc3F)ccc2OC[C@@H](C)N(Cc2ccccc2C(=O)O)C[C@H]1C | 0.993
76 | O=C(C[C@@H]1C=C[C@H](NS(=O)(=O)c2ccccc2)[C@@H](CO)O1)NCc1ccncn1 | 1.08
77 | CC(C)CC#Cc1ccc2c(c1)O[C@@H](CN(C)C(=O)NC1CCCC1)[C@@H](C)CN([C@H](C)CO)S2(=O)=O | 0.92
78 | O=C(N[C@H]1CC[C@@H](CCn2cc(C3(O)CCCC3)nn2)O[C@@H]1CO)C1CCOCC1 | 0.978
